One molecule from patent US12655106B2 (Eikonizo Therapeutics, Inc., priority 2021, dated 2026) can be followed below.

The chains behind the UniProt entries cited, without tags or fusion partners.
UniProt Q9UBN7, whole entry: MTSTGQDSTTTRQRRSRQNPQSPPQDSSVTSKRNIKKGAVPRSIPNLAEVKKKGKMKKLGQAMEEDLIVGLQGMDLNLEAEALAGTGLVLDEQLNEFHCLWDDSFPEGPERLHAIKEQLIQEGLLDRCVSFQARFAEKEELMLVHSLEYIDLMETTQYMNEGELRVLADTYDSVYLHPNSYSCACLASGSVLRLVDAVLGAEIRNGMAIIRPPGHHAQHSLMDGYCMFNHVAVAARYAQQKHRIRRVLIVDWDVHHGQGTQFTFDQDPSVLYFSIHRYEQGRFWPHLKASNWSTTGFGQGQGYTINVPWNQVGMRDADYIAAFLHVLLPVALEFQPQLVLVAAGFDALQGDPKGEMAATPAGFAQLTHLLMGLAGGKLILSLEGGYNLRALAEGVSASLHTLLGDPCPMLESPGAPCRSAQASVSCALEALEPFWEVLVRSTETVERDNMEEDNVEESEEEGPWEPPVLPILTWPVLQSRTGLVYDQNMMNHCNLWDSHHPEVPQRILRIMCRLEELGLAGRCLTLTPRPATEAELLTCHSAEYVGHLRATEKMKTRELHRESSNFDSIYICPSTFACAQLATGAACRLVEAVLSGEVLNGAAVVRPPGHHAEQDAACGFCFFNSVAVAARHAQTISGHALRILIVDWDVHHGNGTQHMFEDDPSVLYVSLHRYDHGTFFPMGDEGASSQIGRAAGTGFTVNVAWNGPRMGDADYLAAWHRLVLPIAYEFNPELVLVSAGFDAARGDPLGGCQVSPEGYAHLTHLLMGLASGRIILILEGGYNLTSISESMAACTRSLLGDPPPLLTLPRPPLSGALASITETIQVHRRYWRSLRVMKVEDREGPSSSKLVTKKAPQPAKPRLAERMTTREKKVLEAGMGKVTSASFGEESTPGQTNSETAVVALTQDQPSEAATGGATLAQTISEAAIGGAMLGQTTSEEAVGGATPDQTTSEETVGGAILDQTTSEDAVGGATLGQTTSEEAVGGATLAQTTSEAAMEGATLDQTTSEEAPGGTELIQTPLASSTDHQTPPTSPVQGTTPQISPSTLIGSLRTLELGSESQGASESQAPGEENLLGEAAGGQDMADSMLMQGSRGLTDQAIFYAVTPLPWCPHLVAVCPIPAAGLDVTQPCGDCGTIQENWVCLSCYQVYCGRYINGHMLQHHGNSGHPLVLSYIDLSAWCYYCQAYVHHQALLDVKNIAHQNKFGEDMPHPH

The target of the test is Full length Human HDAC6 (Homo sapiens, UniProt Q9UBN7). Briefly: Caliper endpoint assay for HDAC enzymatic activity (HDAC6). Format: biochemical. The note with it: ratio of HDAC8 IC50/HDAC6 IC50.

In the case of `CN1Cc2ccc(C(=O)NO)cc2CN1Cc1ccccc1`, the “Selectivity (6 v 8)” value is reported as “II (II: >1-10)”.
